Assays:
[1] = Radioligand Kd assay in healthy control brain homogenate; conditions: control tissue, single subject, undefined = insufficient specific binding to fit the data, tested as the radiolabelled form
[2] = molecular target: 4R-tau aggregates in CBD tissues (Homo sapiens, UniProt P10636); assay: Radioligand Kd/Bmax assay (Scatchard) in CBD brain homogenates; conditions: read-out: CBD Kd; CBD frontal cortex homogenate pooled from three cases, n = 3, mean ± SD; tested as the radiolabelled form
[3] = molecular target: 4R-tau aggregates in PSP tissues (Homo sapiens, UniProt P10636); assay: Radioligand Kd/Bmax assay (Scatchard) in PSP brain homogenates; conditions: read-out: PSP Kd; PSP frontal cortex homogenate pooled from three cases, n = 3, mean ± SD; tested as the radiolabelled form
[4] = molecular target: 3R-tau aggregates in PiD tissues (Homo sapiens, UniProt P10636); assay: Radioligand Kd/Bmax assay (Scatchard) in PiD brain homogenates; conditions: read-out: PiD Kd; PiD frontal cortex homogenate pooled from three cases, n = 3, mean ± SD; tested as the radiolabelled form
[5] = system: PD tissue (frequent α-synuclein aggregates); assay: Radioligand Kd/Bmax assay (Scatchard) in PD brain homogenates; conditions: read-out: PD Kd; PD frontal cortex homogenate pooled from 4 cases, n = 3, mean ± SD; tested as the radiolabelled form
[6] = molecular target: 3R/4R-tau aggregates in AD tissues (Homo sapiens, UniProt P10636); assay: Radioligand Kd/Bmax assay (Scatchard) in AD brain homogenates; conditions: read-out: AD Kd; AD frontal cortex homogenate pooled from three cases, n = 3, mean ± SD; tested as the radiolabelled form

Chains of the proteins cited; added tags and fusions are not shown. Residues count along the entry.
UniProt P10636, 1-441 isoform 8: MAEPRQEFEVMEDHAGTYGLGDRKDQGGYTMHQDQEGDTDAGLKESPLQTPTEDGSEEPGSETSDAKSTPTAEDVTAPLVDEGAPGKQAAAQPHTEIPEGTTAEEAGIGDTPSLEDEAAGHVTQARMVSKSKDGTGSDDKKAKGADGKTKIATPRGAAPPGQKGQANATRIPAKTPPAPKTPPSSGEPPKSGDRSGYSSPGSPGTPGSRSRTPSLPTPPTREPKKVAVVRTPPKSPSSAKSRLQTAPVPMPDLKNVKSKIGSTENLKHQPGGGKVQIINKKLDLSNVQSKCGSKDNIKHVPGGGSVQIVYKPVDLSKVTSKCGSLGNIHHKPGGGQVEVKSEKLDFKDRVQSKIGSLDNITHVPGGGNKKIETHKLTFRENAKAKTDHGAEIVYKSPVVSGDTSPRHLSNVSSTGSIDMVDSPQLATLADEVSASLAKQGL
UniProt P10636, 623-708 limits assumed: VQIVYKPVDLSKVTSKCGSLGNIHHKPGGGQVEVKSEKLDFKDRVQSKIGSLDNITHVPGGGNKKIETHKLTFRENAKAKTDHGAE
UniProt P10636, 1-410 isoform 5: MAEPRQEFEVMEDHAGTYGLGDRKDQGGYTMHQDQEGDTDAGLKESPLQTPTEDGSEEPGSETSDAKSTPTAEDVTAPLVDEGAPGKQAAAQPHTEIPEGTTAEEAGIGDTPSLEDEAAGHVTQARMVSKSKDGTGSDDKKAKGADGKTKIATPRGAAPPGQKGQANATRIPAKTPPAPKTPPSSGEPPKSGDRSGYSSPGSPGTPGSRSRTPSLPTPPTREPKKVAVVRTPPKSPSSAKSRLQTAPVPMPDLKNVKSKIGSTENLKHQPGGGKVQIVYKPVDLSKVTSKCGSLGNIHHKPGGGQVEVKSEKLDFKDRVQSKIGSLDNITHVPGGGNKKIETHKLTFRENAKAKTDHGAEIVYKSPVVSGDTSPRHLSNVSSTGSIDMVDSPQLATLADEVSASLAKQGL

Row | SMILES | Control Kd [1] | Kd [2] | Kd [3] | Kd [4] | Kd [5] | Kd [6] | Control Kd ([1]; listed as [3H]OXD-2115)
1 | CNc1ccc(/C=C/C=C/c2nc3ccc(OCC(O)CF)cc3s2)cn1 (centres unmarked) | Undefined | 36 nM | 4.6 nM | 20 nM | 5.1 nM | 4.1 nM | 
2 | Fc1cc(-c2ccc3c(n2)[nH]c2ccncc23)ccn1 | Undefined | 23 nM | 5.3 nM |  |  | 2.5 nM | 
3 | OCC1CCN(c2ccc(-c3cc4cc(O)ccc4[nH]3)c(F)n2)CC1 [OXD-2115] | Undefined | 27 nM | 4.9 nM | 34 nM | 48 nM | 5.5 nM | undefined

From PMC11178805, “Ligand-based design of [^18F]OXD-2314 for PET imaging in non-Alzheimer’s disease tauopathies” (Nature Communications, 2024)
